Earlier results as cited in patent US20090233942A1, “Genetic markers associated with response to antidepressants” (priority 2008, published 2009).

By UniProt entry, the sequences of proteins in these tests, tags left out.
UniProt P10635, whole entry: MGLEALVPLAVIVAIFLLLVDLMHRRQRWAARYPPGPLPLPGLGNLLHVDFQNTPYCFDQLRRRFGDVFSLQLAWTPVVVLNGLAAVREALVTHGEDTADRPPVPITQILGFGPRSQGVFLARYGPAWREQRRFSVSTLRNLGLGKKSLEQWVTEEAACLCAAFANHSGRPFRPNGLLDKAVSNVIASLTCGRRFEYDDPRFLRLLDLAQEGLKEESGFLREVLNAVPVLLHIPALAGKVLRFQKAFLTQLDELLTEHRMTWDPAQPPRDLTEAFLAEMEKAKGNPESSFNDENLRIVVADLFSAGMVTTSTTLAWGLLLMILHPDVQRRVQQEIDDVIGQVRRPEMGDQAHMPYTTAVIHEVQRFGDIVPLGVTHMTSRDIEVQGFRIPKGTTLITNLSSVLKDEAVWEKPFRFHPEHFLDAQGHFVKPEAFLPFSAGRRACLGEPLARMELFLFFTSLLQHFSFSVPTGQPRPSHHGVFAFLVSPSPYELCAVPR

Target: CYP2D6 (Homo sapiens, UniProt P10635)
Settings: cited from earlier work

## CNCCC(Oc1ccc(C(F)(F)F)cc1)c1ccccc1 (stereo not shown) [fluoxetine]
  inhibition of CYP2D6: inhibit
